Consider one compound from patent US20250129067A1 (Progentos Therapeutics, Inc., priority 2021, published 2025).

Protein sequences, listed by entry. Tags and fused reporters are not part of them. Residues count along the entry.
UniProt P16234, 24-1089: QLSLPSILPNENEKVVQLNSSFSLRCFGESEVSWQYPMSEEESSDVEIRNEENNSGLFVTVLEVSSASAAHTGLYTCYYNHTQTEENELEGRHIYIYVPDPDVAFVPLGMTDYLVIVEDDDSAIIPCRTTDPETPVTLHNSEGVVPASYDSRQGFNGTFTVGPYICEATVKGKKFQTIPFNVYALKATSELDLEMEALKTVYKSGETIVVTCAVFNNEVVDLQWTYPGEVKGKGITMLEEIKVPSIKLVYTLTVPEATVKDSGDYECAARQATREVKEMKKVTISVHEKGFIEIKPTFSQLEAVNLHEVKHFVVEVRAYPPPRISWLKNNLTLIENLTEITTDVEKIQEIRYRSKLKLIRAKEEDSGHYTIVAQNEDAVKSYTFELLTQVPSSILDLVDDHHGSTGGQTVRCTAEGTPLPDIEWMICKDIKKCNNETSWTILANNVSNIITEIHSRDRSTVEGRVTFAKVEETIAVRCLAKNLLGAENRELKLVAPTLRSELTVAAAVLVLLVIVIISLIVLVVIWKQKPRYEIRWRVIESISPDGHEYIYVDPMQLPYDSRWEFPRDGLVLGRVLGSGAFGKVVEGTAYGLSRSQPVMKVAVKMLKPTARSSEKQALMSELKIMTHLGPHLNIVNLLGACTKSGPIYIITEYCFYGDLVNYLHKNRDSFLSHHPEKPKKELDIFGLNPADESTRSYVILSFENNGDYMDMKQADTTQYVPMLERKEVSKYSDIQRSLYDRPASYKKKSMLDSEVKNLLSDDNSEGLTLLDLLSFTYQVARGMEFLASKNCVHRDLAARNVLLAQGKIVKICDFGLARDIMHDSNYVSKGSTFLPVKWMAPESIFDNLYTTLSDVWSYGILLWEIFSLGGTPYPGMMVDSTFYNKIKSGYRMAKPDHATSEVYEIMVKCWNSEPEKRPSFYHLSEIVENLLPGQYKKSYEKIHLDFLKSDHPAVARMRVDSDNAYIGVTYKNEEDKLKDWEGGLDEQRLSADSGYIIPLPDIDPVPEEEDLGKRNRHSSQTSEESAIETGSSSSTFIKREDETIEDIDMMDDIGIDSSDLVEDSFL

The target of the assay is PDGFRα (Homo sapiens (Human), UniProt P16234). Briefly: PDGFRα kinase enzyme assay (Promega PDGFRα Kinase Enzyme System, ADP-Glo). Format: biochemical. The note with it: 20 ng purified PDGFRα, 150 uM ATP, Poly (Glu4Tyr1) substrate, two hours, 11-point dose response; read-out: IC50 Values on PDGFRα Kinase Inhibition. The procedure:
The PDGFRα enzyme assays were conducted per the manufacturer's directions (Promega PDGFRα Kinase Enzyme System and ADP Glo Assay Cat #V8011). […] 20 ng of purified PDGFRα protein was added to the test article. […] ADP-Glo was added to halt the kinase reaction and deplete the remaining ATP. Kinase detection reagent, containing luciferase and luciferin, was used to convert the ADP signal into luminescence. Luminescence was measured using a Molecular Devices Spectramax ID5 and compared to a standard curve to determine kinase activity. IC50s were calculated using Prism 9, Graphpad software.
For orientation: ADP-Glo turns the ADP formed in a reaction into a luminescent signal.

Turning to `Cc1ccc(NC(=O)c2ccc(CN3CCN(C)CC3)cc2)cc1Nc1nc(-c2cccnc2)cs1` [Masitinib, masitinib, reference compound], the IC50 (commonly the point on the concentration scale where inhibition reaches its midpoint) stood at 45 nM.
